T1: human IL-17A (human, UniProt Q16552 24-155)
T1 construct: also called CTLA-8
T1 sequence (looked up): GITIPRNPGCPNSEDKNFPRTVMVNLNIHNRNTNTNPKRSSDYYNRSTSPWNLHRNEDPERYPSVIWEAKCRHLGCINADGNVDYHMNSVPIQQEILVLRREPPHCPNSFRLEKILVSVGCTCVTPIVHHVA

B1: BCY13202 (peptide)
peptide: CDTDPELCRFLGLDC
modifications: Ci, Cii, Ciii cyclised with TBMT
notes: Bicyclic peptide on TBMT scaffold
B2: BCY13201 (peptide)
peptide: CDTDPELCRFLALDC
modifications: [dA] = D-alanine in CiDTDPELCiiRFL[dA]LDCiii; Ci, Cii, Ciii cyclised with TBMT
notes: as for B1
B3: BCY13208 (peptide)
peptide: CDTDPELCAFLGLDC
modifications: Ci, Cii, Ciii cyclised with TBMT
notes: as for B1
B4: BCY13219 (peptide)
peptide: CDTDPELCRFLNLDC
modifications: Ci, Cii, Ciii cyclised with TBMT
notes: as for B1
B5: BCY13221 (peptide)
peptide: CDTDPELCRFLGIDC
modifications: Ci, Cii, Ciii cyclised with TBMT
notes: as for B1
B6: BCY13222 (peptide)
peptide: CDTDPELCRFLGVDC
modifications: Ci, Cii, Ciii cyclised with TBMT
notes: as for B1
B7: BCY13647 (peptide)
peptide: CDTDPELCRFLELDC
modifications: [dE] = D-glutamate in CiDTDPELCiiRFL[dE]LDCiii; Ci, Cii, Ciii cyclised with TBMT
notes: as for B1
B8: BCY13648 (peptide)
peptide: CDTDPELCRFLVLDC
modifications: [dV] = D-valine in CiDTDPELCiiRFL[dV]LDCiii; Ci, Cii, Ciii cyclised with TBMT
notes: as for B1
B9: BCY13651 (peptide)
peptide: CDTDPELCSFLGLDC
modifications: Ci, Cii, Ciii cyclised with TBMT
notes: as for B1
B10: BCY13060 (peptide)
peptide: ACPQDLELCTFLFGDCA
modifications: Ci, Cii, Ciii cyclised with TBMT
notes: as for B1

Key:
human IL-17A [1] = target: T1, human IL-17A; test: fluorescence polarization competition; tracer BCY13351, 50 nM IL-17A; mean, n=5
Experimental: (§1) Affinity determination by fluorescence polarization (FP) competition. Bicycles were screened to determine affinity (Ki) in a fluorescence polarisation assay where in competition with a bicycle labelled with fluorescein (referred to as tracer) with a known affinity for IL-17A. Peptides were diluted to an appropriate concentration in assay buffer (PBS+0.01% Tween20, adjusted to pH7.4 using NaOH (1M)) with a maximum of 1% DMSO, then serially diluted 1 in 2 into assay buffer. Into black 384-well low volume plates, 5 μL of diluted peptide was added to the plate followed by 10 μL of IL-17A at a fixed concentration (75 nM IL-17A for tracer BCY13196, 50 nM IL-17A for tracer BCY13351), then 10 μL tracer added to a final concentration of 1 nM. Measurements were conducted on a BMG PHERAstar FS equipped with an “FP 485 520 520” optic module which excites at 485 nm and detects parallel and perpendicular emission at 520 nm. The PHERAstar FS was set at 25° C. with 200 flashes per well and a positioning delay of 0.1 second, with each well measured at 5 to 10 minute intervals for 60 minutes. The gain used for measurements was determined at the point of experiment on a tracer alone well. […]
(§2) Selected peptide ligands of the invention were tested in the above mentioned IL-17A human fluorescence polarization (FP) competition assay and the results are shown in Table 1: […]

human IL-17A [2] = target: T1, human IL-17A; test: fluorescence polarization competition; tracer cell blank, taken as BCY13351; mean, n=3
Experimental: Affinity determination by fluorescence polarization (FP) competition. Bicycles were screened to determine affinity (Ki) in a fluorescence polarisation assay where in competition with a bicycle labelled with fluorescein (referred to as tracer) with a known affinity for IL-17A. Peptides were diluted to an appropriate concentration in assay buffer (PBS+0.01% Tween20, adjusted to pH7.4 using NaOH (1M)) with a maximum of 1% DMSO, then serially diluted 1 in 2 into assay buffer. Into black 384-well low volume plates, 5 μL of diluted peptide was added to the plate followed by 10 μL of IL-17A at a fixed concentration (75 nM IL-17A for tracer BCY13196, 50 nM IL-17A for tracer BCY13351), then 10 μL tracer added to a final concentration of 1 nM. Measurements were conducted on a BMG PHERAstar FS equipped with an “FP 485 520 520” optic module which excites at 485 nm and detects parallel and perpendicular emission at 520 nm. The PHERAstar FS was set at 25° C. with 200 flashes per well and a positioning delay of 0.1 second, with each well measured at 5 to 10 minute intervals for 60 minutes. The gain used for measurements was determined at the point of experiment on a tracer alone well. Data analysis was performed in Dotmatics where mP values were fit to the Cheng Prusoff equation in order to generate a Ki value.
as §2

human IL-17A [3] = target: T1, human IL-17A; test: fluorescence polarization competition; tracer BCY13196, 75 nM IL-17A; mean, n=3
Experimental: as §1, §2

Ki (human IL-17A [2]) | also measured | Binder
 | Ki (human IL-17A [1]): 13.6 nM | B1
23 nM |  | B2
36.3 nM |  | B3
114 nM |  | B4
29.9 nM |  | B5
62.9 nM |  | B6
28.7 nM |  | B7
23 nM |  | B8
41.1 nM |  | B9
 | Ki (human IL-17A [3]): 228 nM | B10

Reference: US20230021419A1 (Bicycle, published 2023)
